Source: PubChem BioAssay AID1671189 (National Center for Advancing Translational Sciences (NCATS), 2021)
Only a part is listed here, and it is no random draw. Calls of active or inactive are those of the source. Calls come from the whole dose curve; as a rule, active = well fitted curve in the direction sought with a large enough effect; inconclusive = small, poorly fitted or top-dose-only effect, or another doubt; inactive = no such curve, though single readings can be large or run the other way.

By UniProt entry, the sequences of proteins in these tests, tags left out. Where a name states a change or a piece, a line headed by the entry shows the natural chain unless it says otherwise.
UniProt P18054: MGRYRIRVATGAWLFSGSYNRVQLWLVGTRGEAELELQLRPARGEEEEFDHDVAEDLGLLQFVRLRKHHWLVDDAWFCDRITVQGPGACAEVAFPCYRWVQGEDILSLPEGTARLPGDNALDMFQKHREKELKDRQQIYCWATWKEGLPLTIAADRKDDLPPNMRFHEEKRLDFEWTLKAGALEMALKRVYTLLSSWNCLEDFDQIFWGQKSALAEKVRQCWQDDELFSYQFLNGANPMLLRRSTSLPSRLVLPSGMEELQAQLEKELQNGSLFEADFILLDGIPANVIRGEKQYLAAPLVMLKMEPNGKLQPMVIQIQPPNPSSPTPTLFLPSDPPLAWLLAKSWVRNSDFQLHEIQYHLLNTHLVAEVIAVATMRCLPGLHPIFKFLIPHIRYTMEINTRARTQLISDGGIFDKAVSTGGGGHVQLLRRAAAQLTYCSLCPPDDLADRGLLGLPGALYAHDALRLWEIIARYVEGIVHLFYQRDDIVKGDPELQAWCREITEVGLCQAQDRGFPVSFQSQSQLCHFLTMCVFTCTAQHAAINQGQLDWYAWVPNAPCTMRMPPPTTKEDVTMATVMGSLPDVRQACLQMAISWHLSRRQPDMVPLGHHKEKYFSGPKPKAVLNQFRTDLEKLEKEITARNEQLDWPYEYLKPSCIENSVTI

The compounds below were run against Polyunsaturated fatty acid lipoxygenase ALOX12 (Homo sapiens) (UniProt P18054) (assay: Confirmatory qHTS assay for inhibitors of human arachidonate 12S-lipoxygenase (ALOX12): Round 2). Details: purified human 12-LOX, xylenol orange absorbance.
Description: Assay Provider: Theodore R. Holman Ph.D. University of California, Santa Cruz, California Human lipoxygenase 12hLO is a member of the closely related lipoxygenase family of enzymes which catalyze the site-specific oxidation of arachidonic acid to various hormone precursor molecules and as such is a candidate for drug development in a variety of disease areas, such as cancer and inflammation. Inhibition of 12hLO activity was screened by utilizing arachidonic acid as a substrate. The extent of hydroperoxide product formation was measured by a secondary chromogenic reaction in which xylenol orange (XO, Sigma-Aldrich, cat. number 39,818-7) reacts with the ferric ions produced from the reaction between the hydroperoxide and ferrous ions. The Fe (III)-XO complex is characterized with red-shifted absorbance at 560 nm. […]
PROTOCOL TABLE SEQUENCE No. (e.g., 1, 2, 3, etc.); […] […] 7; Incubation; 30 min; room temperature 8; Detector; absorbance; Read 1 at 405 nm absorbance using ViewLux (PerkinElmer) CCD imager. 9; Detector; absorbance; Read 2 at 573 nm absorbance using ViewLux (PerkinElmer) CCD imager. […] 8, 9; Two absorbance readouts were obtained at 405 nm and at 573 nm using a ViewLux high-throughput CCD plate imager (PerkinElmer). The 573 to 405 (Read 2 / Read 1) absorbance ratio was used to compute reaction progress.
Potency is the fitted concentration of half-maximal effect.

Compound	Potency
COc1cccc(CNc2ccc(S(=O)(=O)Nc3nccs3)cc2)c1O	active: 19.3 µM
